Test results published in US5254558A, “Substituted 1,3-diazines as leukocyte elastase inhibitors” (Imperial Chemical Industries PLC, priority 1991, dated 1993).

Test system: HLE
Test: in vivo tests (Acute Lung Injury Model, Acute Hemorrhagic Assay)

## CC(C)C(NC(=O)Cn1c(-c2ccccc2)ncc(NC(=O)OCC(F)(F)F)c1=O)C(=O)C(F)(F)F (stereo not shown) [Example 99]
  activity in in vivo tests: activity in in vivo tests
